The test system of the data set is 1-methyl-4-phenyl-1,2,3,6-tetrahydropyridine (MPTP) monkeys. Briefly: LIDs in MPTP parkinsonian monkeys. The note with it: for persistence of LID reduction, tolerance: parkinsonian monkeys.

As for `Cc1ncccc1OC[C@@H]1CCCN1` [ABT-089], the “decline (maximal decrease) in LIDs in parkinsonian monkeys” value (“decline (maximal decrease) in LIDs” for short) turned out to be 40%; the “side effects (emesis, nausea) in parkinsonian monkeys” value is “no detectable side effects and no emesis”; the “persistence of LID reduction, tolerance” value is “persisted for months”. For the setting “monkey, in vivo”, the “effect on LIDs in parkinsonian monkeys” value is reported as “appear less efficacious”.

For the compound `Clc1cc(N2C[C@@H]3CN[C@@H]3C2)cnc1Cl` [ABT-894], the “decline (maximal decrease) in LIDs” value is “up to 60%”; the “side effects (emesis, nausea) in parkinsonian monkeys” value is “no detectable side effects and no emesis”; the “persistence of LID reduction, tolerance” value was “persisted for months”. In addition, the “effect on LIDs in parkinsonian monkeys” value (monkey, in vivo) is recorded as “greatest reduction in LIDs”.

Take `O=C(c1ccc(Cl)o1)N1CC2CNCC2C1` (centres unmarked) [AZD1446]: the “decline (maximal decrease) in LIDs” value is 30%. Moreover, under “monkey, in vivo”, the “effect on LIDs in parkinsonian monkeys” value was “appear less efficacious”.

As for `c1cnc2cc3c(cc2n1)[C@@H]1CNC[C@H]3C1` [Varenicline], the “decline (maximal decrease) in LIDs” value was roughly 50% and the “persistence of LID reduction, tolerance” value was “no tolerance”. Besides, where the note is “monkey, in vivo”, the “Side effects in monkeys” value is on record as “Some” and the “effect on LIDs in parkinsonian monkeys” value is on record as “appear less efficacious”.

These data come from patent publication US20190307740A1, “COMPOSITIONS AND METHODS FOR TREATMENT RELATED TO FALL AND FALL FREQUENCY IN NEURODEGENERATIVE DISEASES” (Neurocea, LLC, priority 2016, published 2019).
